Source: patent US20140303386A1, “COMPOSITIONS AND METHODS FOR ENHANCING LIPID PRODUCTION IN […] INDUCTION OF CELL CYCLE ARREST” (RUTGERS, THE STATE UNIVERSITY OF NEW JERSEY, priority 2011, published 2014)

Assays:
[1] = system: marine diatom Phaeodactylum tricornutum; conditions: inhibitor applied to exponentially growing cells, continuous light, F/2 media
[2] = system: marine diatom Phaeodactylum tricornutum; conditions: treated vs untreated cells

**Q.** How did the specific growth rate [1] turn out when Nc1nc(OCC2CCCCC2)c2nc[nH]c2n1 [NU 2058, 6-(Cyclohexylmethoxy)-9H-purin-2-amine] was run?
**A.** The specific growth rate was “dose-dependent decrease”.

**Q.** What about the “nitrate assimilation (nitrate reductase activity), of the activity of untreated cells” value [2] of the same compound?
**A.** The value was “about 35%”.
